According to ChEMBL document CHEMBL3576802, “Discovery of a β-Hairpin Octapeptide, c[Pro-Arg-Phe-Phe-Dap-Ala-Phe-DPro], Mimetic of Agouti-Related Protein(87-132) [AGRP(87-132)] with Equipotent Mouse Melanocortin-4 Receptor (mMC4R) Antagonist Pharmacology” (J Med Chem, 2015):
pKi: −log10 of the molar value.

Chains of the proteins cited; added tags and fusions are not shown. Lines headed by an entry give the natural chain unless they say otherwise; changes in a name come on top.
UniProt P33033: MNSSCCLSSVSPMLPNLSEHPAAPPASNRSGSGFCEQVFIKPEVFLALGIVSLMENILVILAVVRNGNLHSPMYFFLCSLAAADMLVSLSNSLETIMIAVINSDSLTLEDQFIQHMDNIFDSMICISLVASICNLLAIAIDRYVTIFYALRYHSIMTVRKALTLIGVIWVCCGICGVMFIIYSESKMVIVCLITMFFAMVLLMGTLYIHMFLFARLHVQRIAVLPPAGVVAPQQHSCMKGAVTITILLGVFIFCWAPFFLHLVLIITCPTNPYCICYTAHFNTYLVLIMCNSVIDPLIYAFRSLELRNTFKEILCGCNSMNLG

Molecular target: Melanocortin receptor 3 (Mus musculus, UniProt P33033)
Test: Displacement of MTII from mouse MC3R expressed in HEK293 cells
Format: cell-based
Details: for Kb: read-out: pA2 (converted)

| SMILES | Kb | pKi |
| --- | --- | --- |
| C[C@@H]1NC(=O)[C@H](CC(N)=O)NC(=O)[C@H](Cc2ccccc2)NC(=O)C(Cc2cccc3ccccc23)NC(=O)[C@H](CCCNC(=N)N)NC(=O)[C@@H]2CCCN2C(=O)[C@H]2CCCN2C(=O)[C@H](Cc2ccccc2)NC1=O (stereo partly drawn) | 794 nM | – |
| C[C@@H]1NC(=O)[C@H](CC(N)=O)NC(=O)[C@H](Cc2ccccc2)NC(=O)[C@H](Cc2ccccc2)NC(=O)[C@H](CCCNC(=N)N)NC(=O)[C@@H]2CCCN2C(=O)[C@H]2CCCN2C(=O)[C@H](Cc2ccccc2)NC1=O | 398 nM | 6.40 |
